Values of other authors as cited in patent US7381745B2, “Ligands for metabotropic glutamate receptors and inhibitors of NAALADase” (Georgetown University, priority 1999, dated 2008).

Protein sequences, listed by entry. Tags and fused reporters are not part of them.
UniProt P70627, whole entry: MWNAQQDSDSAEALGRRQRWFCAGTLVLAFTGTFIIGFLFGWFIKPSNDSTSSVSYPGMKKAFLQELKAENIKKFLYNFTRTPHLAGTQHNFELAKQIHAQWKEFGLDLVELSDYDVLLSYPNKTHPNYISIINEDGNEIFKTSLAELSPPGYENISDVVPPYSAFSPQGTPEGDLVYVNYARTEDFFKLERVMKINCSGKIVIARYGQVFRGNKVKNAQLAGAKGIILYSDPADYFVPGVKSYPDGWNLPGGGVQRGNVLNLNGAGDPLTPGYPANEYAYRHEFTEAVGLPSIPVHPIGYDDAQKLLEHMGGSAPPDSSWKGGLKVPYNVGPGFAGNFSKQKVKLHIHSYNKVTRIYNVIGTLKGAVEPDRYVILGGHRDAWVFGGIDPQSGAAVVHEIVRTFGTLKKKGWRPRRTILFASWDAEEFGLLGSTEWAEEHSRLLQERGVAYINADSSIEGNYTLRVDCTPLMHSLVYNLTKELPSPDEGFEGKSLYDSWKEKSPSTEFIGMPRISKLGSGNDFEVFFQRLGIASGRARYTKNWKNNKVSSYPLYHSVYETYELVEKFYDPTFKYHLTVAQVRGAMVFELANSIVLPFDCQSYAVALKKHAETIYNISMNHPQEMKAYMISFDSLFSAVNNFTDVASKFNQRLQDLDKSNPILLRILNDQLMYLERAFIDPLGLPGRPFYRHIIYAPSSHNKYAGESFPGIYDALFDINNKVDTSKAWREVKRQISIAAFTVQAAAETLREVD

Biological target: NAALADase (Rattus norvegicus, UniProt P70627)
Settings: reported, J. Med. Chem. 39, 619; cited from earlier work

2-(phosphomethyl)pentanedioic acid [PMPA]
NAALADase inhibition (in words): potent inhibitors of NAALADase
